What was measured:
[1] = target: T1, human Rad9-Rad1-Hus1 complex (human 9-1-1 complex) (human, UniProt Q99638 1-391; O60671 1-282; O60921 1-280); experiment: pull-down
T1 sequence (looked up) 1: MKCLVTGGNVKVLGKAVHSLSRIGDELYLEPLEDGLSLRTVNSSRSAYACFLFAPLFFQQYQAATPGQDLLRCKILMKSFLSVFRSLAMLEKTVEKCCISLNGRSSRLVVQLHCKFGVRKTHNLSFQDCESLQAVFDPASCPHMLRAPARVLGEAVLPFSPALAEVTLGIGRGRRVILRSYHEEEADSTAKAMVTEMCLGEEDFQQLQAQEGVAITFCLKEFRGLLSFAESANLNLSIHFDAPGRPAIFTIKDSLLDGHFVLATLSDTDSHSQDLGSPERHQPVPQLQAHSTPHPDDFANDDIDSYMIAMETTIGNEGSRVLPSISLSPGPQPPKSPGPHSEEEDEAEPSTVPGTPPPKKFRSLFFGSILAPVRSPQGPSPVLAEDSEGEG
T1 sequence (looked up) 2: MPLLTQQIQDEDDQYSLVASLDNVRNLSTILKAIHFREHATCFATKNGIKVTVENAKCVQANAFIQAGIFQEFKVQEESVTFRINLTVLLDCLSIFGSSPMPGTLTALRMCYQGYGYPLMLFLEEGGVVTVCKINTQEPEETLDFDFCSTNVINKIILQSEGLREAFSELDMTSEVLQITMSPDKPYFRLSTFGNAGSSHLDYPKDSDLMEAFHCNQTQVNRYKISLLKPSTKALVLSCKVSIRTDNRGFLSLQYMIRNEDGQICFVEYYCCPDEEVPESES
T1 sequence (looked up) 3: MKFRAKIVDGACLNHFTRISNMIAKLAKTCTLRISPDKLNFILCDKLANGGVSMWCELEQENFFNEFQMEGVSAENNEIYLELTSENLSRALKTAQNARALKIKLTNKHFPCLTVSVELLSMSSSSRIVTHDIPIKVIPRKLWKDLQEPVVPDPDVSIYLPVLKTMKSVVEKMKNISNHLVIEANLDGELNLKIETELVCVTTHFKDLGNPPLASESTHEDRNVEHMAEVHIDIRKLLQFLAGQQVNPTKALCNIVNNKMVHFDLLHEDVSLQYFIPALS

[2] = target: T2, Schizosaccharomyces pombe Rad9-Rad1-Hus1 complex (S. pombe 9-1-1 complex) (Schizosaccharomyces pombe, UniProt P26306 1-426; P22193 1-323; P78955 1-287); experiment: pull-down
T2 sequence (looked up) 1: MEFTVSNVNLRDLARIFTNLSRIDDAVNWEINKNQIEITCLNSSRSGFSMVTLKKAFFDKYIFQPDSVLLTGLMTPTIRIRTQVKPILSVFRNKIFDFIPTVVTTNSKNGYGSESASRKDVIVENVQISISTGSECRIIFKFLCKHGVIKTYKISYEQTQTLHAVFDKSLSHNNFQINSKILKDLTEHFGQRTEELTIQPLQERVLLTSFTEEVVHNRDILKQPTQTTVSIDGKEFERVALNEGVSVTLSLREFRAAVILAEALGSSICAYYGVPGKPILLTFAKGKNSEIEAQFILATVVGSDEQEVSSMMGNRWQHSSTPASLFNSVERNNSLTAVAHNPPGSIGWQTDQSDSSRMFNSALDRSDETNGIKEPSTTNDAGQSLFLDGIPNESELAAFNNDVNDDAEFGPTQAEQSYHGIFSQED
T2 sequence (looked up) 2: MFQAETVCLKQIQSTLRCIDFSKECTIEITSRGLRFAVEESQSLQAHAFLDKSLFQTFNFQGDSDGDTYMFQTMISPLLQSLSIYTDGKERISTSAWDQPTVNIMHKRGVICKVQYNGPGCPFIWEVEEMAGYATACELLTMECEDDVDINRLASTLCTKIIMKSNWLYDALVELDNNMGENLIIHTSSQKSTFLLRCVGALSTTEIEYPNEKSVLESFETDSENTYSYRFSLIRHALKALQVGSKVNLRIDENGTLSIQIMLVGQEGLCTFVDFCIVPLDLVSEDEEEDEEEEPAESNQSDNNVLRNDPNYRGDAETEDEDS
T2 sequence (looked up) 3: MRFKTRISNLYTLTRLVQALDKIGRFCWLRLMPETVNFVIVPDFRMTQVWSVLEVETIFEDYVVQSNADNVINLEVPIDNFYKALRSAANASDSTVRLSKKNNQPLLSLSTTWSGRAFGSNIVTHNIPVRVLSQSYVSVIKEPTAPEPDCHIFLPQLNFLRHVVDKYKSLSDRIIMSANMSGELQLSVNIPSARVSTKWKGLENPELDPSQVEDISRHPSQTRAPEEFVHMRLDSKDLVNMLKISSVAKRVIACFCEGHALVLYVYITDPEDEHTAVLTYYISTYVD

binding result [1]: binds | binding result [2]: binds
B1: GST-hTDG (full length) (enzyme, human, UniProt Q13569 1-410, looked up)
chain: MEAENAGSYSLQQAQAFYTFPFQQLMAEAPNMAVVNEQQMPEEVPAPAPAQEPVQEAPKGRKRKPRTTEPKQPVEPKKPVESKKSGKSAKSKEKQEKITDTFKVKRKVDRFNGVSEAELLTKTLPDILTFNLDIVIIGINPGLMAAYKGHHYPGPGNHFWKCLFMSGLSEVQLNHMDDHTLPGKYGIGFTNMVERTTPGSKDLSSKEFREGGRILVQKLQKYQPRIAVFNGKCIYEIFSKEVFGVKVKNLEFGLQPHKIPDTETLCYVMPSSSARCAQFPRAQDKVHYYIKLKDLRDQLKGIERNMDVQEVQYTFDLQLAQEDAKKMAVKEEKYDPGYEAAYGGAYGENPCSSEPCGFSSNGLIESVELRGESAFSGIPNGQWMTQSFTDQIPSFSNHCGTQEQEEESHA

Reference: publication PMC2094074 (Nucleic Acids Research, 2007)
